By UniProt entry, the sequences of proteins in these tests, tags left out. Residues count along the entry.
UniProt Q12809, whole entry: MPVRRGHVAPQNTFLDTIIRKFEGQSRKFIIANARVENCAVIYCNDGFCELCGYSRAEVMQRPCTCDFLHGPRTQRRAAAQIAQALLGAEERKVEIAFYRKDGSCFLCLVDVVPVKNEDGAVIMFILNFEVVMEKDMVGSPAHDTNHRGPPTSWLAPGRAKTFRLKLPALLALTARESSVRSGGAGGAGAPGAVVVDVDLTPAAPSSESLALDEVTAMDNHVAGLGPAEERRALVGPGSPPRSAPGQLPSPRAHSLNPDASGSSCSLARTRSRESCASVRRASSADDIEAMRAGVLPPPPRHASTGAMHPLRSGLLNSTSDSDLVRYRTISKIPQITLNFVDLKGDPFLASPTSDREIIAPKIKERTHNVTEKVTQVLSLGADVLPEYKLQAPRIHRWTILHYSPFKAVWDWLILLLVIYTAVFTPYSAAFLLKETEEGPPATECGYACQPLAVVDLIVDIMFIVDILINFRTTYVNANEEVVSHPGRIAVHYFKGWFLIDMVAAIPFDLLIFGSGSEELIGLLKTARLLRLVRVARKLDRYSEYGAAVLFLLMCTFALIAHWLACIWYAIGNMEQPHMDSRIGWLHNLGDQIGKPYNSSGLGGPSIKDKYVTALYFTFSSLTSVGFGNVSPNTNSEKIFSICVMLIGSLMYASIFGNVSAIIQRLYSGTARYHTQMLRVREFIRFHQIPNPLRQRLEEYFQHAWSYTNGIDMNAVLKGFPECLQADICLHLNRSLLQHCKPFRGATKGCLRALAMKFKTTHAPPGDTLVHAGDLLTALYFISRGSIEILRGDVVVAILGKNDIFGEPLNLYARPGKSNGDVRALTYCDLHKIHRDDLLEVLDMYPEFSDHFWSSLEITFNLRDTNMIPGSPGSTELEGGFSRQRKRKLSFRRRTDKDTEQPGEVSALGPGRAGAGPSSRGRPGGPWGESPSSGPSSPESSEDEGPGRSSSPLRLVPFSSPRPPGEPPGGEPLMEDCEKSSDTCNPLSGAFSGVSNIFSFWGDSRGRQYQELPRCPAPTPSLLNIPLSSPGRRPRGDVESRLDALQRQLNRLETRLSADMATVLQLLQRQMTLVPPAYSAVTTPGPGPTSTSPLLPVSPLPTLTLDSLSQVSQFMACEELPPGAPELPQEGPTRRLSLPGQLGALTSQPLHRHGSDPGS
UniProt P11712, whole entry: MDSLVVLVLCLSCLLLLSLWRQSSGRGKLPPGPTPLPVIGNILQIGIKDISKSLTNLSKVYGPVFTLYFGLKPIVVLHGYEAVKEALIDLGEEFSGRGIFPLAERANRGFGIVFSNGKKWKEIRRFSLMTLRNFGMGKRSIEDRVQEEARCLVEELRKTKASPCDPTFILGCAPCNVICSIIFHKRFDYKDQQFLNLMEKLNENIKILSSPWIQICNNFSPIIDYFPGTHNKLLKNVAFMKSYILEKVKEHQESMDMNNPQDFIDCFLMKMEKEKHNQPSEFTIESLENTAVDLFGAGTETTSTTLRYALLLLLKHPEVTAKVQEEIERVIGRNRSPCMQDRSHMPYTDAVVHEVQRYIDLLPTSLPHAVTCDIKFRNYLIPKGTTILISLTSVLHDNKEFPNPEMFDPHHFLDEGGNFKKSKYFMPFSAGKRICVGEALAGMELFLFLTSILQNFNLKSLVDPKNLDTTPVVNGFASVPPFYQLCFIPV
UniProt P33261, whole entry: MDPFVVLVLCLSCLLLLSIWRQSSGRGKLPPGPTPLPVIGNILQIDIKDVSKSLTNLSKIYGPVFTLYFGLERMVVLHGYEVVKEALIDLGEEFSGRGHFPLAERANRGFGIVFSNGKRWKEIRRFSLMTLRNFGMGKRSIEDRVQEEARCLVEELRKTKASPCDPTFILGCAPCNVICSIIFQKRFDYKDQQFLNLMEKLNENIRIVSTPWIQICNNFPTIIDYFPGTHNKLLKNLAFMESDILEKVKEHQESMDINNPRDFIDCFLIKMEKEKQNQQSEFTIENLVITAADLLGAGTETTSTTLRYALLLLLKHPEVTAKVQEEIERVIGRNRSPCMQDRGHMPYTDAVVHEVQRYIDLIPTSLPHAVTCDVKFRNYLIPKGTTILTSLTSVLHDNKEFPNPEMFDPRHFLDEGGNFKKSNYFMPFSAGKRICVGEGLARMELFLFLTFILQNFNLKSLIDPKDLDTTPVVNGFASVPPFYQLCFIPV
UniProt P05177, 2-516 limits assumed: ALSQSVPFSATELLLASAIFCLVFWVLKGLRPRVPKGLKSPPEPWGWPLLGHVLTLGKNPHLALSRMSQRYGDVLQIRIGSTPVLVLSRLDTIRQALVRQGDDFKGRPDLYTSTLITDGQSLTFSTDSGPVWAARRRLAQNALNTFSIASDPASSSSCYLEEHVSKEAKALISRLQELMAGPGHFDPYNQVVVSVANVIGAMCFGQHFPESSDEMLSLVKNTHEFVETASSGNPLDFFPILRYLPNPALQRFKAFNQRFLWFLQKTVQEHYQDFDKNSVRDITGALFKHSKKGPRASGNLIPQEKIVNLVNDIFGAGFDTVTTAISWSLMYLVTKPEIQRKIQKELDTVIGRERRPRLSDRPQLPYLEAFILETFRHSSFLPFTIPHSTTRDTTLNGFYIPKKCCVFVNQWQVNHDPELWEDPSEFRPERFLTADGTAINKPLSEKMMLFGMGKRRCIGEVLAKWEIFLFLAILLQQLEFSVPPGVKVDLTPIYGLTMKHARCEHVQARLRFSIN
UniProt Q9CYK2, 36-362 limits assumed: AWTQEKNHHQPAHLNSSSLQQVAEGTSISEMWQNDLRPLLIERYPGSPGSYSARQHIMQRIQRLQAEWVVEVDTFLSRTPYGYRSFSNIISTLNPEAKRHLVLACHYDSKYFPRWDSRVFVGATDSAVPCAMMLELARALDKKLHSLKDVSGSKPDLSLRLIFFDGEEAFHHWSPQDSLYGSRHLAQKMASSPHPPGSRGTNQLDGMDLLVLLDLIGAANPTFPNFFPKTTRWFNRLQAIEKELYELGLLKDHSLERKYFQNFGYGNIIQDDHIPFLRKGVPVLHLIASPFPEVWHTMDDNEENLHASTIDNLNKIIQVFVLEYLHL
UniProt P08684, 2-503 limits assumed: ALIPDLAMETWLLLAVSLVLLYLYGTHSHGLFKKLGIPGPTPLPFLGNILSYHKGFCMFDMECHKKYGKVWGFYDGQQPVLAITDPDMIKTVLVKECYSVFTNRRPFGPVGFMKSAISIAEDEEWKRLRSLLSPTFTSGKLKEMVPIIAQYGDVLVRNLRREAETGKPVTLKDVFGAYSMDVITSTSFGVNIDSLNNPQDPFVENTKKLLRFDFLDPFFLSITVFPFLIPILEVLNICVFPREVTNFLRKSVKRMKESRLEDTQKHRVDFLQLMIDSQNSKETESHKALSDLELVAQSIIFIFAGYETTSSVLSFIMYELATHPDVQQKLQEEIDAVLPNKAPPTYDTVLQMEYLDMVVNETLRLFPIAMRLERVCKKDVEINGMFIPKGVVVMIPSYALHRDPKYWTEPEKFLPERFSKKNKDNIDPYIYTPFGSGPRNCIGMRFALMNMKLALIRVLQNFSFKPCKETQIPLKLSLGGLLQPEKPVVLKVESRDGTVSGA
UniProt P10635, whole entry: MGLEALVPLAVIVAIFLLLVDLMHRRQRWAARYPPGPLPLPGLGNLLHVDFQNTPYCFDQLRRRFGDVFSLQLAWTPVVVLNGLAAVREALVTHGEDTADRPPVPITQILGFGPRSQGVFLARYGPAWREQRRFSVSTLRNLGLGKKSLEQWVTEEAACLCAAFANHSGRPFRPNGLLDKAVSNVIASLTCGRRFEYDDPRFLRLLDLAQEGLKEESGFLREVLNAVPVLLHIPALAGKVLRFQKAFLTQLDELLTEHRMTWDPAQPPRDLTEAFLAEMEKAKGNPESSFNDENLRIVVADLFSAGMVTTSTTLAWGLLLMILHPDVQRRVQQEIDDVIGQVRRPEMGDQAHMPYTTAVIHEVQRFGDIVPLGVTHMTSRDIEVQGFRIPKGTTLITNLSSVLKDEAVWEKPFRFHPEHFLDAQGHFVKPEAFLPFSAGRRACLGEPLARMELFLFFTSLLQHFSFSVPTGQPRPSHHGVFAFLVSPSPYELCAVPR

In ChEMBL document CHEMBL5034025 (Eur J Med Chem, 2021):

Legend:
[1] = target: Voltage-gated inwardly rectifying potassium channel KCNH2 (Homo sapiens, UniProt Q12809); test: Inhibition of human ERG at 10 uM by fluorescence polarization assay
Cytochrome P450 2C9 = Cytochrome P450 2C9 (Homo sapiens, UniProt P11712); test: Inhibition of CYP2C9 (unknown origin) at 10 uM
Cytochrome P450 2C19 = Cytochrome P450 2C19 (Homo sapiens, UniProt P33261); test: Inhibition of CYP2C19 (unknown origin) at 10 uM
HT-22 = test: Cytotoxicity against mouse HT22 cells assessed as cell viability at 10 uM incubated for 18 hrs by MTT assay; details: ht-22, 18 h
[2] = Metabolic stability in mouse liver microsomes assessed as parent compound remaining measured after 30 mins; details: 0.5 h
Cytochrome P450 1A2 = Cytochrome P450 1A2 (Homo sapiens, UniProt P05177); test: Inhibition of CYP1A2 (unknown origin) at 10 uM
[3] = target: Glutaminyl-peptide cyclotransferase (Mus musculus, UniProt Q9CYK2); test: Inhibition of mouse QPCT measured after 15 mins by fluorimetry
Cytochrome P450 3A4 = Cytochrome P450 3A4 (Homo sapiens, UniProt P08684); test: Inhibition of CYP3A4 (unknown origin) at 10 uM
Cytochrome P450 2D6 = Cytochrome P450 2D6 (Homo sapiens, UniProt P10635); test: Inhibition of CYP2D6 (unknown origin) at 10 uM
[4] = Metabolic stability in human liver microsomes assessed as parent compound remaining measured after 30 mins; details: 0.5 h
Mus musculus [5] = test: Antialzheimer activity in transgenic 5XFAD mouse model assessed as amyloid betaN3pE-40 levels in hippocampus at 10 mM administered every day for 4 weeks via brain infusion by ELISA
Mus musculus [6] = test: Antialzheimer activity in transgenic 5XFAD mouse model assessed as amyloid beta42 levels in hippocampus at 10 mM administered every day for 4 weeks via brain infusion by ELISA
Mus musculus [7] = test: Antialzheimer activity in transgenic 5XFAD mouse model assessed as amyloid beta40 levels in hippocampus at 10 mM administered every day for 4 weeks via brain infusion by ELISA
Mus musculus [8] = test: Antialzheimer activity in transgenic 5XFAD mouse model assessed as amyloid betaN3pE-42 levels in hippocampus at 10 mM administered every day for 4 weeks via brain infusion by ELISA

Molecule `COc1cc(N(C(=O)NCCCn2cncc2C)C2CCN(C)CC2)ccc1OCCc1ccnc(N)c1` has an inhibition (INH) [1] of 9.2%, an inhibition (INH) (Cytochrome P450 2C9) of 17% and an inhibition (INH) (Cytochrome P450 2C19) of 6%. For the same molecule, the Activity (HT-22) was 100%, the Stability [2] was 60.9% and the inhibition (INH) (Cytochrome P450 1A2) was 0%. It also gave an IC50 [3] of 7.6 nM, an inhibition (INH) (Cytochrome P450 3A4) of 50% and an inhibition (INH) (Cytochrome P450 2D6) of 95%. It also gave a Stability [4] of 73.2%.
In the case of `COc1cc(N(C(=O)NCc2ccc3[nH]cnc3c2)C2CCN(C)CC2)ccc1OCCCCc1ccnc(N)c1`, the inhibition (INH) [1] is reported as 3.5%, the inhibition (INH) (Cytochrome P450 2C9) is reported as 11% and the inhibition (INH) (Cytochrome P450 2C19) is reported as 24%. For the same molecule, the Activity (Mus musculus [5]) was 32.6%, the Activity (HT-22) was 100% and the Stability [2] was 92.1%. It also gave an Activity (Mus musculus [6]) of 30.5%, an inhibition (INH) (Cytochrome P450 1A2) of 0% and an IC50 [3] of 60.7 nM. For the same molecule, the Activity (Mus musculus [7]) was 37.5%, the inhibition (INH) (Cytochrome P450 3A4) was 48% and the inhibition (INH) (Cytochrome P450 2D6) was 61%. For the same molecule, the Stability [4] was 97.7% and the Activity (Mus musculus [8]) was 21.3%.

Only a part of the results on these compounds is given; other tests are left out.
